Target: T1, DNA polymerase III α-subunit (Escherichia coli, UniProt P10443 1-1160)
T1 sequence: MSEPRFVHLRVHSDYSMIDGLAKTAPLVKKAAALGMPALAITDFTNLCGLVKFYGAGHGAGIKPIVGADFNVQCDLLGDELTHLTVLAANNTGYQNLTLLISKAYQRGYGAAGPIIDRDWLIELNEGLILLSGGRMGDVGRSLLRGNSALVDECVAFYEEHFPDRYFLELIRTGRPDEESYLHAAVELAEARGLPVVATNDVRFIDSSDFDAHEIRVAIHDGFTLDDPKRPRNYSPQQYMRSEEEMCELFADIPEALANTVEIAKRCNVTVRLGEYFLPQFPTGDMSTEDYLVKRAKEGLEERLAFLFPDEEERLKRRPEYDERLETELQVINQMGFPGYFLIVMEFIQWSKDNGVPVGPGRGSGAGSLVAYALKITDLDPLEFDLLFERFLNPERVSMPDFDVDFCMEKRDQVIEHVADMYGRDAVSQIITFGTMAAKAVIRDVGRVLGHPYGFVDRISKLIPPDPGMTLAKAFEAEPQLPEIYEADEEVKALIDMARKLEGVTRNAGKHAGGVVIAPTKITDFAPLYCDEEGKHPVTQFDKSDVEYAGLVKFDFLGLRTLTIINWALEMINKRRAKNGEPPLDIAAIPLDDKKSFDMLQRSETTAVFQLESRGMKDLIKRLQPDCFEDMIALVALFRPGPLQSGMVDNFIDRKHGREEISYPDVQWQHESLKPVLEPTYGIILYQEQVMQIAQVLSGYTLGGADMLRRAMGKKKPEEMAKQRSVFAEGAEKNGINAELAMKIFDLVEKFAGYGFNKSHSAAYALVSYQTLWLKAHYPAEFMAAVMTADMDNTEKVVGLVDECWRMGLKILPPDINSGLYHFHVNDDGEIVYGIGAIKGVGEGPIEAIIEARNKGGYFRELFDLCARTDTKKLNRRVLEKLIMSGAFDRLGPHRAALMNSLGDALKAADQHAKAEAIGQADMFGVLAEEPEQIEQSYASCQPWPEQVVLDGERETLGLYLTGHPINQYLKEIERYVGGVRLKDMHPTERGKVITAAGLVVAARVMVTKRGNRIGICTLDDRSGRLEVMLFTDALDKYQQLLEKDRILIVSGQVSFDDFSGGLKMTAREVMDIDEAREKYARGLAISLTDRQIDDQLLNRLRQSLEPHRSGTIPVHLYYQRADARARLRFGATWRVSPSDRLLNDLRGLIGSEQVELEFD
Test: NMR titration

B1: ɛ186:θ complex (complex)
chain 1: MSTAITRQIVLDTETTGMNQIGAHYEGHKIIEIGAVEVVNRRLTGNNFHVYLKPDRLVDPEAFGVHGIADEFLLDKPTFAEVADEFMDYIRGAELVIHNAAFDIGFMDYEFSLLKRDIPKTNTFCKVTDSLAVARKMFPGKRNSLDALCARYEIDNSKRTLHGALLDAQILAEVYLAMTGGQTSMA
chain 2: MLKNLAKLDQTEMDKVNVDLAAAGVAFKERYNMPVIAEAVEREQPEHLRSWFRERLIAHRLASVNLSRLPYEPKLK
- Kd: > 100 µM

From publication PMC2528190 (Nucleic Acids Research, 2008)
